Source: ChEMBL document CHEMBL3621059, “Discovery of 4-Aryl-5,6,7,8-tetrahydroisoquinolines as Potent, Selective, and Orally Active Aldosterone Synthase (CYP11B2) Inhibitors: In Vivo Evaluation in Rodents and Cynomolgus Monkeys” (J Med Chem, 2015)

Molecular target: T1, Cytochrome P450 11B2, mitochondrial (Homo sapiens, UniProt P19099)
T1 sequence (P19099 whole entry): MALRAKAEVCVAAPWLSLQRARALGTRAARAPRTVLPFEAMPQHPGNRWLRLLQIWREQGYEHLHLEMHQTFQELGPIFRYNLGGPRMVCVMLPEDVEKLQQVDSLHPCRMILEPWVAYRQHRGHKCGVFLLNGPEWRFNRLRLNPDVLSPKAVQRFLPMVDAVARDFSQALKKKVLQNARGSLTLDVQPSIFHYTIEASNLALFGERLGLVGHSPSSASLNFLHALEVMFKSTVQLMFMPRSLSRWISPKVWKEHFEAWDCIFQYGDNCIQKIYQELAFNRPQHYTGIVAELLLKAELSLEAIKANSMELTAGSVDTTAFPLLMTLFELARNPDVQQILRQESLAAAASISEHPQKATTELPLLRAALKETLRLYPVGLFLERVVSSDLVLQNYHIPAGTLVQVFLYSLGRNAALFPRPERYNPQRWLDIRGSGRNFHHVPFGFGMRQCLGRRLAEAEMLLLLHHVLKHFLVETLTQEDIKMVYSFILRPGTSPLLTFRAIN

IC50: 123 nM
SMILES: CC(C)C(=O)NC1CCCc2c(-c3ccc(C#N)cc3)cncc21 (racemic)
